{"source": "patent US20200354426A1", "about": "(MEDIMMUNE LIMITED, priority 2016, published 2020)", "system": "healthy volunteers", "settings": "for Subjects with TEAE: Abdominal distension / Subjects with TEAE: Abdominal pain / Subjects with TEAE: Application site erosion / Subjects with TEAE: Arrhythmia / Subjects with TEAE: Atrioventricular block second degree / Subjects with TEAE: Cardiac Disorders / Subjects with TEAE: Decreased appetite / Subjects with TEAE: Diarrhoea / Subjects with TEAE: Dizziness / Subjects with TEAE: Gastrointestinal Disorders / Subjects with TEAE: Headache / Subjects with TEAE: Immune System Disorders / Subjects with TEAE: Infections and infestations / Subjects with TEAE: Injury associated with device / Subjects with TEAE: Injury, poisoning and procedural complications / Subjects with TEAE: Metabolism and nutrition disorders / Subjects with TEAE: Musculoskeletal and connective tissue disorders / Subjects with TEAE: Musculoskeletal chest pain / Subjects with TEAE: Nasopharyngitis / Subjects with TEAE: Nausea / Subjects with TEAE: Nervous system disorders / Subjects with TEAE: Oropharyngeal pain / Subjects with TEAE: Procedural dizziness / Subjects with TEAE: Respiratory, thoracic and mediastinal disorders / Subjects with TEAE: Seasonal allergy / Subjects with TEAE: Ventricular extrasystoles / Subjects with TEAE: Vomiting / TEAE: Subject with at least one event: N = 6", "note": "Where two headings read alike, the source gives them in different places.", "data": [{"substance": "L-Histidyl-L-seryl-L-glutaminylglycyl-L-threonyl-L-phenylalanyl-L-threonyl-L-seryl-L-alpha-aspartyl-(N6-[N-(1-oxohexadecyl)-L-gamma-gutamyl])L-lysy-L-sery-L-alpha-glutamyl-L-tyrosyl-L-leucyl-L-alpha-aspartyl-L-seryl-L-alpha-glutamyl-L-arginyl-L-alanyl-L-arginyl-L-alpha-L-aspartyl-L-phenylalanyl-L-valyl-L-alanyl-L-tryptophyl-L-leucyl-L-alpha-glutamyl-L-alanylglycylglycine [Peptide G933]", "values": [{"measurement": "Subjects with TEAE: Abdominal distension", "setting": "5 μg", "result": 0}, {"measurement": "Subjects with TEAE: Abdominal pain", "setting": "5 μg", "result": 0}, {"measurement": "Subjects with TEAE: Application site erosion", "setting": "5 μg", "result": 0}, {"measurement": "Subjects with TEAE: Arrhythmia", "setting": "5 μg", "result": 0}, {"measurement": "Subjects with TEAE: Atrioventricular block second degree", "setting": "5 μg", "result": 0}, {"measurement": "Subjects with TEAE: Cardiac Disorders", "setting": "5 μg", "result": 0}, {"measurement": "Subjects with TEAE: Decreased appetite", "setting": "5 μg", "result": 0}, {"measurement": "Subjects with TEAE: Diarrhoea", "setting": "5 μg", "result": 0}, {"measurement": "Subjects with TEAE: Dizziness", "setting": "5 μg", "result": 0}, {"measurement": "Subjects with TEAE: Gastrointestinal Disorders", "setting": "5 μg", "result": 0}, {"measurement": "Subjects with TEAE: Headache", "setting": "5 μg", "result": "1 (16.7%)"}, {"measurement": "Subjects with TEAE: Immune System Disorders", "setting": "5 μg", "result": 0}, {"measurement": "Subjects with TEAE: Infections and infestations", "setting": "5 μg", "result": "1 (16.7%)"}, {"measurement": "Subjects with TEAE: Injury associated with device", "setting": "5 μg", "result": 0}, {"measurement": "Subjects with TEAE: Injury, poisoning and procedural complications", "setting": "5 μg", "result": 0}, {"measurement": "Subjects with TEAE: Metabolism and nutrition disorders", "setting": "5 μg", "result": 0}, {"measurement": "Subjects with TEAE: Musculoskeletal and connective tissue disorders", "setting": "5 μg", "result": 0}, {"measurement": "Subjects with TEAE: Musculoskeletal chest pain", "setting": "5 μg", "result": 0}, {"measurement": "Subjects with TEAE: Nasopharyngitis", "setting": "5 μg", "result": "1 (16.7%)"}, {"measurement": "Subjects with TEAE: Nausea", "setting": "5 μg", "result": 0}, {"measurement": "Subjects with TEAE: Nervous system disorders", "setting": "5 μg", "result": "1 (16.7%)"}, {"measurement": "Subjects with TEAE: Oropharyngeal pain", "setting": "5 μg", "result": 0}, {"measurement": "Subjects with TEAE: Procedural dizziness", "setting": "5 μg", "result": 0}, {"measurement": "Subjects with TEAE: Respiratory, thoracic and mediastinal disorders", "setting": "5 μg", "result": 0}, {"measurement": "Subjects with TEAE: Seasonal allergy", "setting": "5 μg", "result": 0}, {"measurement": "Subjects with TEAE: Ventricular extrasystoles", "setting": "5 μg", "result": 0}, {"measurement": "Subjects with TEAE: Vomiting", "setting": "5 μg", "result": 0}, {"measurement": "TEAE: Subject with at least one event", "setting": "5 μg", "result": "2 (33.3%)"}, {"measurement": "Subjects with TEAE: Abdominal distension", "setting": "10 μg", "result": 0}, {"measurement": "Subjects with TEAE: Abdominal pain", "setting": "10 μg", "result": "1 (16.7%)"}, {"measurement": "Subjects with TEAE: Application site erosion", "setting": "10 μg", "result": 0}, {"measurement": "Subjects with TEAE: Arrhythmia", "setting": "10 μg", "result": 0}, {"measurement": "Subjects with TEAE: Atrioventricular block second degree", "setting": "10 μg", "result": "1 (16.7%)"}, {"measurement": "Subjects with TEAE: Cardiac Disorders", "setting": "10 μg", "result": "1 (16.7%)"}, {"measurement": "Subjects with TEAE: Decreased appetite", "setting": "10 μg", "result": 0}, {"measurement": "Subjects with TEAE: Diarrhoea", "setting": "10 μg", "result": "1 (16.7%)"}, {"measurement": "Subjects with TEAE: Dizziness", "setting": "10 μg", "result": "1 (16.7%)"}, {"measurement": "Subjects with TEAE: Gastrointestinal Disorders", "setting": "10 μg", "result": "1 (16.7%)"}, {"measurement": "Subjects with TEAE: Headache", "setting": "10 μg", "result": 0}, {"measurement": "Subjects with TEAE: Immune System Disorders", "setting": "10 μg", "result": 0}, {"measurement": "Subjects with TEAE: Infections and infestations", "setting": "10 μg", "result": 0}, {"measurement": "Subjects with TEAE: Injury associated with device", "setting": "10 μg", "result": 0}, {"measurement": "Subjects with TEAE: Injury, poisoning and procedural complications", "setting": "10 μg", "result": 0}, {"measurement": "Subjects with TEAE: Metabolism and nutrition disorders", "setting": "10 μg", "result": 0}, {"measurement": "Subjects with TEAE: Musculoskeletal and connective tissue disorders", "setting": "10 μg", "result": 0}, {"measurement": "Subjects with TEAE: Musculoskeletal chest pain", "setting": "10 μg", "result": 0}, {"measurement": "Subjects with TEAE: Nasopharyngitis", "setting": "10 μg", "result": 0}, {"measurement": "Subjects with TEAE: Nausea", "setting": "10 μg", "result": 0}, {"measurement": "Subjects with TEAE: Nervous system disorders", "setting": "10 μg", "result": "1 (16.7%)"}, {"measurement": "Subjects with TEAE: Oropharyngeal pain", "setting": "10 μg", "result": 0}, {"measurement": "Subjects with TEAE: Procedural dizziness", "setting": "10 μg", "result": 0}, {"measurement": "Subjects with TEAE: Respiratory, thoracic and mediastinal disorders", "setting": "10 μg", "result": 0}, {"measurement": "Subjects with TEAE: Seasonal allergy", "setting": "10 μg", "result": 0}, {"measurement": "Subjects with TEAE: Ventricular extrasystoles", "setting": "10 μg", "result": 0}, {"measurement": "Subjects with TEAE: Vomiting", "setting": "10 μg", "result": 0}, {"measurement": "TEAE: Subject with at least one event", "setting": "10 μg", "result": "3 (50.0%)"}, {"measurement": "Subjects with TEAE: Abdominal distension", "setting": "30 μg", "result": 0}, {"measurement": "Subjects with TEAE: Abdominal pain", "setting": "30 μg", "result": 0}, {"measurement": "Subjects with TEAE: Application site erosion", "setting": "30 μg", "result": "1 (16.7%)"}, {"measurement": "Subjects with TEAE: Arrhythmia", "setting": "30 μg", "result": 0}, {"measurement": "Subjects with TEAE: Atrioventricular block second degree", "setting": "30 μg", "result": 0}, {"measurement": "Subjects with TEAE: Cardiac Disorders", "setting": "30 μg", "result": 0}, {"measurement": "Subjects with TEAE: Decreased appetite", "setting": "30 μg", "result": 0}, {"measurement": "Subjects with TEAE: Diarrhoea", "setting": "30 μg", "result": 0}, {"measurement": "Subjects with TEAE: Dizziness", "setting": "30 μg", "result": "1 (16.7%)"}, {"measurement": "Subjects with TEAE: Gastrointestinal Disorders", "setting": "30 μg", "result": 0}, {"measurement": "Subjects with TEAE: Headache", "setting": "30 μg", "result": "1 (16.7%)"}, {"measurement": "Subjects with TEAE: Immune System Disorders", "setting": "30 μg", "result": "1 (16.7%)"}, {"measurement": "Subjects with TEAE: Infections and infestations", "setting": "30 μg", "result": 0}, {"measurement": "Subjects with TEAE: Injury associated with device", "setting": "30 μg", "result": 0}, {"measurement": "Subjects with TEAE: Metabolism and nutrition disorders", "setting": "30 μg", "result": 0}, {"measurement": "Subjects with TEAE: Musculoskeletal and connective tissue disorders", "setting": "30 μg", "result": "1 (16.7%)"}, {"measurement": "Subjects with TEAE: Musculoskeletal chest pain", "setting": "30 μg", "result": "1 (16.7%)"}, {"measurement": "Subjects with TEAE: Nasopharyngitis", "setting": "30 μg", "result": 0}, {"measurement": "Subjects with TEAE: Nausea", "setting": "30 μg", "result": 0}, {"measurement": "Subjects with TEAE: Nervous system disorders", "setting": "30 μg", "result": "1 (16.7%)"}, {"measurement": "Subjects with TEAE: Oropharyngeal pain", "setting": "30 μg", "result": 0}, {"measurement": "Subjects with TEAE: Procedural dizziness", "setting": "30 μg", "result": "1 (16.7%)"}, {"measurement": "Subjects with TEAE: Respiratory, thoracic and mediastinal disorders", "setting": "30 μg", "result": 0}, {"measurement": "Subjects with TEAE: Seasonal allergy", "setting": "30 μg", "result": "1 (16.7%)"}, {"measurement": "Subjects with TEAE: Ventricular extrasystoles", "setting": "30 μg", "result": 0}, {"measurement": "Subjects with TEAE: Vomiting", "setting": "30 μg", "result": 0}, {"measurement": "TEAE: Subject with at least one event", "setting": "30 μg", "result": "4 (66.7%)"}, {"measurement": "subjects with vomiting", "setting": "100 μg single dose", "result": 1, "unit": "subject"}, {"measurement": "vomiting episodes", "setting": "100 μg single dose", "result": 1, "unit": "episode"}, {"measurement": "Subjects with TEAE: Abdominal distension", "setting": "100 μg", "result": 0}, {"measurement": "Subjects with TEAE: Abdominal pain", "setting": "100 μg", "result": 0}, {"measurement": "Subjects with TEAE: Application site erosion", "setting": "100 μg", "result": 0}, {"measurement": "Subjects with TEAE: Arrhythmia", "setting": "100 μg", "result": "1 (16.7%)"}, {"measurement": "Subjects with TEAE: Atrioventricular block second degree", "setting": "100 μg", "result": 0}, {"measurement": "Subjects with TEAE: Cardiac Disorders", "setting": "100 μg", "result": "1 (16.7%)"}, {"measurement": "Subjects with TEAE: Decreased appetite", "setting": "100 μg", "result": 0}, {"measurement": "Subjects with TEAE: Diarrhoea", "setting": "100 μg", "result": 0}, {"measurement": "Subjects with TEAE: Dizziness", "setting": "100 μg", "result": 0}, {"measurement": "Subjects with TEAE: Gastrointestinal Disorders", "setting": "100 μg", "result": "1 (16.7%)"}, {"measurement": "Subjects with TEAE: Headache", "setting": "100 μg", "result": "1 (16.7%)"}, {"measurement": "Subjects with TEAE: Immune System Disorders", "setting": "100 μg", "result": 0}, {"measurement": "Subjects with TEAE: Infections and infestations", "setting": "100 μg", "result": 0}, {"measurement": "Subjects with TEAE: Injury associated with device", "setting": "100 μg", "result": 0}, {"measurement": "Subjects with TEAE: Injury, poisoning and procedural complications", "setting": "100 μg", "result": 0}, {"measurement": "Subjects with TEAE: Metabolism and nutrition disorders", "setting": "100 μg", "result": 0}, {"measurement": "Subjects with TEAE: Musculoskeletal and connective tissue disorders", "setting": "100 μg", "result": 0}, {"measurement": "Subjects with TEAE: Musculoskeletal chest pain", "setting": "100 μg", "result": 0}, {"measurement": "Subjects with TEAE: Nasopharyngitis", "setting": "100 μg", "result": 0}, {"measurement": "Subjects with TEAE: Nausea", "setting": "100 μg", "result": "1 (16.7%)"}, {"measurement": "Subjects with TEAE: Nervous system disorders", "setting": "100 μg", "result": "1 (16.7%)"}, {"measurement": "Subjects with TEAE: Oropharyngeal pain", "setting": "100 μg", "result": 0}, {"measurement": "Subjects with TEAE: Procedural dizziness", "setting": "100 μg", "result": 0}, {"measurement": "Subjects with TEAE: Respiratory, thoracic and mediastinal disorders", "setting": "100 μg", "result": 0}, {"measurement": "Subjects with TEAE: Seasonal allergy", "setting": "100 μg", "result": 0}, {"measurement": "Subjects with TEAE: Ventricular extrasystoles", "setting": "100 μg", "result": 0}, {"measurement": "Subjects with TEAE: Vomiting", "setting": "100 μg", "result": "1 (16.7%)"}, {"measurement": "TEAE: Subject with at least one event", "setting": "100 μg", "result": "2 (33.3%)"}, {"measurement": "subjects with vomiting", "setting": "150 μg single dose", "result": 4, "unit": "subjects"}, {"measurement": "vomiting episodes", "setting": "150 μg single dose", "result": 9, "unit": "episodes"}, {"measurement": "subjects with significant vomiting", "setting": "150 μg single dose (2 of 6 subjects)", "result": 33.3, "unit": "%"}, {"measurement": "Subjects with TEAE: Abdominal distension", "setting": "150 μg", "result": "2 (33.3%)"}]}]}
